The subject of experiment [1] is B16. Description: Antitumor activity against mouse B16 cells allografted in BDF mouse assessed as increase in life span at 400 mg/kg, ip administered for 9 days relative to untreated control. The conditions noted are these: route intraperitoneal.
Experiment [2] deals with B16. The experiment in a line: Antitumor activity against mouse B16 cells allografted in ip dosed BDF mouse assessed as 25% increase in life span administered for 9 days.
The test system of experiment [3] is B16. The experiment in a line: Antitumor activity against mouse B16 cells allografted in BDF mouse assessed as increase in life span at 50 mg/kg, ip administered for 9 days relative to untreated control. The conditions noted are these: route intraperitoneal.
For experiment [4], the system named is B16. Description: Antitumor activity against mouse B16 cells allografted in BDF mouse assessed as increase in life span at 25 mg/kg, ip administered for 9 days relative to untreated control. To be noted: route intraperitoneal.
For experiment [5], the system named is B16. Description: Antitumor activity against mouse B16 cells allografted in BDF mouse assessed as increase in life span at 100 mg/kg, ip administered for 9 days relative to untreated control. To be noted: route intraperitoneal.
Experiment [6] concerns B16. Description: Antitumor activity against mouse B16 cells allografted in BDF mouse assessed as increase in life span at 6.25 mg/kg, ip administered for 9 days relative to untreated control. To be noted: route intraperitoneal.

On to `ClCCN(CCCl)c1ccc(Cl)cc1`, for which the T/C in experiment [1] came out at 108%. Moreover, in experiment [2], the log(1/C) worked out at 2.74.
For `Cc1ccc(N(CCCl)CCCl)cc1`, the T/C in experiment [3] came out at 137%. Besides, the log(1/C) in experiment [2] was found to be 3.86.
Take `COc1ccc(N(CCCl)CCCl)cc1`: the log(1/C) in experiment [2] was 4.68. Moreover, the T/C in experiment [4] came out at 163%.
As for `CCCCc1ccc(N(CCCl)CCCl)cc1`, the log(1/C) in experiment [2] was determined as 3.44. For the same molecule, the T/C in experiment [5] came out at 125%.
In the case of `CCOc1ccc(N(CCCl)CCCl)cc1`, the T/C in experiment [3] was found to be 197%. Also, the log(1/C) in experiment [2] was 4.87.
Take `Nc1cc(N)cc(N(CCCl)CCCl)c1`: in experiment [6], the T/C is 131%. For the same molecule, in experiment [2], the log(1/C) came to 4.45.

By T/C is commonly meant the result in the treated group divided by that in the control group, in per cent.
